Measured values: ChEMBL document CHEMBL1144049, “Functional assay and structure-activity relationships of new third-generation P-glycoprotein inhibitors” (Bioorg Med Chem, 2008)

Chains of the proteins cited; added tags and fusions are not shown.
UniProt P08183, whole entry: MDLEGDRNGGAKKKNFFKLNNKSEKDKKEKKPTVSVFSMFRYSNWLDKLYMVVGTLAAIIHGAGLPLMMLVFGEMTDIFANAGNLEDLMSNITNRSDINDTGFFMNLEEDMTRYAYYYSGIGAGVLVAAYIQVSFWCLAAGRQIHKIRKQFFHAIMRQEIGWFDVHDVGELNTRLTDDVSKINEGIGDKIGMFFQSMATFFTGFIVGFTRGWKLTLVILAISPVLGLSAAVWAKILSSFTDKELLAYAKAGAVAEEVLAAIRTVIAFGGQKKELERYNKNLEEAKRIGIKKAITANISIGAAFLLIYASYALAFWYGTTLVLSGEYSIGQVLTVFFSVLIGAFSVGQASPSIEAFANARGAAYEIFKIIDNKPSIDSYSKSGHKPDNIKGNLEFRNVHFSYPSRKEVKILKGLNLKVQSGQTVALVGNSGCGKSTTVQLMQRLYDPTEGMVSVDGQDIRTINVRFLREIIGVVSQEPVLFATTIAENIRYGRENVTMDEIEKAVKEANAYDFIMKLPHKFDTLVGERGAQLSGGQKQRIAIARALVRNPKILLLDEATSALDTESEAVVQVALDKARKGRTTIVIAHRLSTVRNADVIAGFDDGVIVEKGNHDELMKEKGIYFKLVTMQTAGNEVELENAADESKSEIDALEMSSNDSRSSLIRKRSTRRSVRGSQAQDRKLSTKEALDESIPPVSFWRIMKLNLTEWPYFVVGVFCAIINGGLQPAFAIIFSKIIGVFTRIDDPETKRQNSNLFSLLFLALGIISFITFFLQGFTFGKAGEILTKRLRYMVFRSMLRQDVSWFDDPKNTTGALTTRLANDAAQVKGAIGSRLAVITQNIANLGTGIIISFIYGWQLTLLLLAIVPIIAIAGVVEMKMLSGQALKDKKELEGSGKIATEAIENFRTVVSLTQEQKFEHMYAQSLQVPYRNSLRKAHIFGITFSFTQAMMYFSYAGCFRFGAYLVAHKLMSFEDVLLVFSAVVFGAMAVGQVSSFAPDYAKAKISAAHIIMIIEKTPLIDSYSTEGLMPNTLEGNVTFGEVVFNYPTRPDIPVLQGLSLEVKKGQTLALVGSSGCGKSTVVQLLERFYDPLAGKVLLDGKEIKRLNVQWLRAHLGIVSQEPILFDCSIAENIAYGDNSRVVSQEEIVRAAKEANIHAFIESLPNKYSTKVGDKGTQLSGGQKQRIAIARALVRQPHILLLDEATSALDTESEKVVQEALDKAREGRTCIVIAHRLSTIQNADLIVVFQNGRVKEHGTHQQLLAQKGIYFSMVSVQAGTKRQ

Each compound was assayed against T1, ATP-dependent translocase ABCB1 (Homo sapiens, UniProt P08183) (assay: Inhibition of human Pgp in A2780 cells after 30 mins by calcein AM assay).
Format: cell-based

SMILES	IC50
Nc1ccccc1C(=O)Nc1ccc(CCN2CCc3ccccc3C2)cc1	9.33 µM
O=C(Nc1ccc(CCN2CCc3ccccc3C2)cc1)c1cnc2ccccc2c1	0.525 µM

Now from value to compound:

IC50	SMILES
4.17 µM	COc1ccc(C(=O)Nc2ccc(CCN3CCc4cc(OC)c(OC)cc4C3)cc2)cc1OC
6.17 µM	COc1cc2c(cc1OC)CN(CCc1ccc(NC(=O)c3cc(OC)c(OC)cc3[N+](=O)[O-])cc1)CC2
3.16 µM	COc1cc2c(cc1OC)CN(CCc1ccc(NC(=O)c3ccc(Br)cc3)cc1)CC2

What follows are compounds tested against T1, ATP-dependent translocase ABCB1 (assay: Inhibition of human Pgp in A2780 cells after 30 mins by Hoechst 33342 assay).
Format: cell-based

SMILES	IC50
Nc1ccccc1C(=O)Nc1ccc(CCN2CCc3ccccc3C2)cc1	9.55 µM
O=C(Nc1ccc(CCN2CCc3ccccc3C2)cc1)c1cnc2ccccc2c1	0.417 µM

Second part, the compound after the results:

IC50	SMILES
5.37 µM	COc1ccc(C(=O)Nc2ccc(CCN3CCc4cc(OC)c(OC)cc4C3)cc2)cc1OC
4.9 µM	COc1cc2c(cc1OC)CN(CCc1ccc(NC(=O)c3cc(OC)c(OC)cc3[N+](=O)[O-])cc1)CC2
2.45 µM	COc1cc2c(cc1OC)CN(CCc1ccc(NC(=O)c3ccc(Br)cc3)cc1)CC2
